This note sets out measurements from patent US5002948A, “3-[4-[4-substituted-1-piperazinyl]-1-butyl]-1H-2,3-dihydroindoles” (H. Lundbeck A/S, priority 1988, dated 1991).

By UniProt entry, the sequences of proteins in these tests, tags left out.
UniProt P19327, whole entry: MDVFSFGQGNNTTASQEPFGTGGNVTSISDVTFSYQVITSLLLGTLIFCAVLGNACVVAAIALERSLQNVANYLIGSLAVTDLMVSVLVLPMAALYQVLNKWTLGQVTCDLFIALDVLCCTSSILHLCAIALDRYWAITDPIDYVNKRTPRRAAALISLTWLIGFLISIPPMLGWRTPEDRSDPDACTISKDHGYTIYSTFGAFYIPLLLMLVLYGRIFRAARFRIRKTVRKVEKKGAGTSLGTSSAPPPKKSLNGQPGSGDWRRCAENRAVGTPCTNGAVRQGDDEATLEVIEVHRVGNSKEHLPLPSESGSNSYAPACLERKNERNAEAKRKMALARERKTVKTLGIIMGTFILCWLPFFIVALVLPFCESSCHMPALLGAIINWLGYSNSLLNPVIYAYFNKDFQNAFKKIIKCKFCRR

For the assay, the target named is T1, serotonin 5-HT1A receptors (Rattus norvegicus, UniProt P19327).
T1 construct: membranes from rat brain minus cerebellum; from tissue; host or cells: brain minus cerebellum of male Wistar (Mol:Wist) rats, membranes
Put plainly: Inhibition of 3H-8-OHDPAT binding to serotonin 5-HT1A receptors in rat brain in vitro. The settings on record: IC50 (3H 8-OH DPAT binding), 3H-8-OHDPAT 1 nM, rat brain membranes minus cerebellum, 37° C., 15 min. As to the method:
INHIBITION OF ^3 H-8-OHDPAT BINDING TO SEROTONIN 5-HT1A RECEPTORS IN A RAT BRAIN IN VITRO
By this method the inhibition by drugs of the binding of ^3 H-8-OHDPAT (1 nM) to serotonin 5-HT1A receptors in membranes from rat brain minus cerebellum is determined in vitro.
Male Wistar (Mol:Wist) rats (125-250 g) are sacrificed and the brain is dissected and weighed. The brain tissue minus cerebellum is homogenized (Ultra Turrax, 20 sec) in 10 ml of ice cold 50 mM Tris buffer pH 8.0 (at 25° C.) containing 120 mM NaCl, 4 mM CaCl2 and 4 mM MgCl2. The homogenate is centrifuged at 20,000 g for 10 min at 4° C. The pellet is homogenized in 10 ml of buffer and incubated at 37° C. for 10 min. The homogenate is centrifuged as above and the pellet is homogenized in 100 vol (w/v) ice cold buffer containing 10 μ M of parglyine.
Incubation tubes kept on ice in triplicate receive 100 μl of drug solution in water (or water for total binding) and 1000 μ l of tissue suspension (final tissue content corresponds to 10 mg original tissue). The binding experiment is initiated by addition of 100 μ l of ^3 H-8-OHDPAT (final concentration 1 nM) and by placing the tubes in a 37° C. water bath. […] After shaking for 1 h and storage 2 h in the dark the content of radioactivity is determined by liquid scintillation counting. […]

One may read the IC50 as the concentration at which inhibition is half-maximal. The low end stands for inhibition by little substance, the high end for a need for much substance.

In the case of `CC1(C)CC(=O)N(CCCCN2CCN(c3ncccn3)CC2)C(=O)C1` [gepirone, reference compound], the IC50 worked out at 310 nM.
